Sequences of proteins named here, by UniProt entry; tags and fusion partners are left off.
UniProt P14635, whole entry: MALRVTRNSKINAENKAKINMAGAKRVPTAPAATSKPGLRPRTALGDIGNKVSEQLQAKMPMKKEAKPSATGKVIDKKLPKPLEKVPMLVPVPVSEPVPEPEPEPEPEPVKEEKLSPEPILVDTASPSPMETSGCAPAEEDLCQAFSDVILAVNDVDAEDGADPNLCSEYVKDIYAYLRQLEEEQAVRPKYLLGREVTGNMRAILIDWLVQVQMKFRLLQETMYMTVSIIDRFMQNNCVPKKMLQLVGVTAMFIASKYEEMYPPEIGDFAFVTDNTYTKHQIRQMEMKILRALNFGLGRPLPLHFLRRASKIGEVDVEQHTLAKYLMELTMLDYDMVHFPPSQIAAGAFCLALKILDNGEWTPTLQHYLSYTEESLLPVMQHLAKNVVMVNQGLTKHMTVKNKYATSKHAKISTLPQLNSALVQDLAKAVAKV

According to PMC12527934 (Nature, 2025):

Columns and labels:
[1] = target: cyclin B–WEE1 interaction (Homo sapiens, UniProt P14635); assay: Cyclin B1 immunoprecipitation, WEE1 binding; type: cell-based; conditions: NCI-H1048, 300 nM, 2 h
[2] = target: cyclin B–MYT1 interaction (Homo sapiens, UniProt P14635); assay: Cyclin B1 immunoprecipitation, MYT1 binding; type: cell-based; conditions: NCI-H1048, 300 nM, 2 h

For `CC(C)C[C@@H]1NC(=O)[C@@H](N(C)C(=O)[C@@H](NC(=O)[C@@H]2C[C@@H](F)CN2C(=O)C2(C(F)(F)F)CC(F)(F)C2)C2CC2)CCCCNC(=O)C(C)(C)NC(=O)[C@H](Cc2cc(Cl)nn2-c2ccccc2)N(C)C1=O` [CIRc-019], the “cyclin B–WEE1 interaction (co-immunoprecipitation)” value [1] was “also disrupted this interaction” and the “cyclin B–MYT1 interaction (co-immunoprecipitation)” value [2] was “disrupted the cyclin B–MYT1 interaction”.
